Reference: paper PMC7363834, “A STING-based biosensor affords broad cyclic dinucleotide detection within single living eukaryotic cells” (Nature Communications, 2020)

By UniProt entry, the sequences of proteins in these tests, tags left out.
UniProt Q8C6L5, whole entry: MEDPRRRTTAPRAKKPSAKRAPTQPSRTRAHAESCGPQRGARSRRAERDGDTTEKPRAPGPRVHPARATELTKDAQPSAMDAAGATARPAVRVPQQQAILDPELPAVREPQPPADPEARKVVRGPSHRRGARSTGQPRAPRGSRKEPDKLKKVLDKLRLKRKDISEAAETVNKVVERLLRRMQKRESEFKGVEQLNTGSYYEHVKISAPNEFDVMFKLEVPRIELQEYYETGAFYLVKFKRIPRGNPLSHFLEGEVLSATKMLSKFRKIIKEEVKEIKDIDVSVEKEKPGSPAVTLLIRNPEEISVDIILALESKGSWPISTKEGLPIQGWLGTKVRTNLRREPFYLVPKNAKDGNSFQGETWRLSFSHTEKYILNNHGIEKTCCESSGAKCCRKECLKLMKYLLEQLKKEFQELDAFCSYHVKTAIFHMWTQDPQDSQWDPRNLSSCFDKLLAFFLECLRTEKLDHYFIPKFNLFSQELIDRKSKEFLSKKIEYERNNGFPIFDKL

How the values were obtained:
[1] = target: recombinant SUMO-mcGAS (cGAS) (Mus musculus, UniProt Q8C6L5); test: cGAS enzyme activity assay (2ʼ3ʼ-cGAMP production) read out with BioSTING FRET; details: fixed cGAS and ISD; 250 µM ATP, 250 µM GTP, 50 ng ISD; linear rates fit
cGAS = details: read-out: reported IC50; cited from earlier work
[2] = reason the compound failed in development; ref Pfizer; cited from earlier work

Structure (SMILES): O=C(NC1CCCCC1C(=O)O)c1cnn2c(O)cc(-c3ccccc3)nc12 (stereo not drawn)
- IC50 [1]: 12.3 µM
- IC50 (cGAS): 5 µM
- access to the cytosol [2]: inability to access the cytosol
